{"source": "paper PMC2906776", "about": "(Bioorganic & medicinal chemistry, 2009)", "tested_on": "ER positive MCF-7 cells", "data": [{"substance": "Rhodamine coupled per-6-(4-hydroxymethyl-1,2,3-triazolmethyl)-6-deoxy-β-cyclodextrin [Compound 26R]", "values": [{"measurement": "Cellular localization / membrane permeation", "result": "no evidence for cell membrane permeation"}]}]}
